Molecular target: Beta-secretase 1 (Homo sapiens, UniProt P56817)
Experiment: Inhibition of BACE by secreted APPbeta release assay

Amino acid sequences for entries named in this document (tags omitted). A change or cut given only in a name is not applied to a line headed by its entry.
UniProt P56817: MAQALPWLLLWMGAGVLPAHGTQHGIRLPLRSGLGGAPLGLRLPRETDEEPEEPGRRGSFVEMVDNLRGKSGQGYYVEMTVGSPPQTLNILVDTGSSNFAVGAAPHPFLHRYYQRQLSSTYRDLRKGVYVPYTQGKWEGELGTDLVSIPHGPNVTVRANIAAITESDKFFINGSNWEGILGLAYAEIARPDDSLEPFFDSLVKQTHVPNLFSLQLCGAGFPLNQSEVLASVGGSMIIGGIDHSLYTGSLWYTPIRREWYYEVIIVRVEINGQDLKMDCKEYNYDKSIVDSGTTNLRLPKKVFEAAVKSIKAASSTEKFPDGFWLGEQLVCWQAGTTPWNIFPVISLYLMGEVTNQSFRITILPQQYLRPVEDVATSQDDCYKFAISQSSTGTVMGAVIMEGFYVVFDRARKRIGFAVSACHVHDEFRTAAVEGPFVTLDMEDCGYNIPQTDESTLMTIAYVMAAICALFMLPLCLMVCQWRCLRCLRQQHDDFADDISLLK

## CO[C@H]1CC[C@]2(CC1)Cc1ccc(-c3cc(Cl)cc(C#N)c3)cc1C21N=C(C)C(N)=N1 (stereo partly specified)
  IC50: 0.72 nM
